Sequences of proteins named here, by UniProt entry; tags and fusion partners are left off. A change or cut given only in a name is not applied to a line headed by its entry.
UniProt P49683: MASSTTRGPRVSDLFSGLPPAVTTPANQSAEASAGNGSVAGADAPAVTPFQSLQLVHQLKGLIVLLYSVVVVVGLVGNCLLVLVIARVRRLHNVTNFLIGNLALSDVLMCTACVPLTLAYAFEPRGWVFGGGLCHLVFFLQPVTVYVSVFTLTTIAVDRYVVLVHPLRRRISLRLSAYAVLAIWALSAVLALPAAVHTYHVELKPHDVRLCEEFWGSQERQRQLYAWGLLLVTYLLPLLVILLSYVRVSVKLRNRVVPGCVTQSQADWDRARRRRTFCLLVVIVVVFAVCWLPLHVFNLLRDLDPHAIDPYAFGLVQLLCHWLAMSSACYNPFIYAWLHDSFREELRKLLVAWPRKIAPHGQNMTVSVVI

According to patent US9206173B2, “Heterocyclic compounds for the treatment of stress-related conditions” (OTSUKA PHARMACEUTICAL CO., LTD., priority 2009, dated 2015):

How the values were obtained:
human GPR10 [1] = molecular target: T1, human GPR10 (Homo sapiens (Human), UniProt P49683); experiment: Inhibitory activity on binding of [3H]-PrRP to GPR10 (HEK 293 cell membrane fraction); settings: [3H]-PrRP 1 nM, human GPR10-expressing HEK 293 cell membrane fraction; Ki from IC50 by Cheng-Prussoff formula
Description: Inhibitory Activity on Binding of [^3H]-PrRP to GPR10
Human GPR10 receptor expressing human embryonic kidney cells, HEK 293 cells, were cultured in Dulbecco's Modified Eagle's medium supplemented with 10% fetal bovine serum and 1% penicilline-streptmycin at 37° C., in 5% carbon dioxide gas conditions. The medium was removed and the cells were recovered in a phosphate buffer to prepare a cell suspension. The cell suspension was homogenated on ice by an ultrasonic cell homogenizer (Microson™ type XL200) and centrifuged at 40,000 g for 10 minutes at 4° C. After the supernatant was discarded, Buffer A (20 mM HEPES, 10 mM EDTA, 1 μl/ml protease inhibiting cocktail, pH 7.4) was added to the pellet. The pellet was suspended by the ultrasonic cell homogenizer, then the suspension was centrifuged at 40,000 g, for 10 minutes at 4° C. After this operation was repeated once again, the supernatant was discarded, Buffer B (20 mM HEPES, 0.1 mM EDTA, pH 7.4) was added to the pellet, and the pellet was suspended by the ultrasonic homogenizer. This was stored at a freezer of −80° C. as a cell membrane fraction until use in a binding test.
To each well of a 96-well plate, 150 μl of assay buffer (20 mM HEPES, 10 mM EDTA, 1 μl/ml protease inhibiting agent cocktail, pH 7.4), 20 μl of cell membrane fraction, 10 μl of test compound and [^3H]-PrRP (final concentration 1 nM) were added and incubated at room temperature for 90 minutes. After completion of the reaction, using a cell harvester, the cell-membrane fraction sample product was filtered under aspiration by a glass fiber filter plate (Unifilter; GF/B) previously treated with 0.5% polyethylene imine. The filter was washed with a 50 mM Tris hydrochloric acid buffer (pH 7.4) three times. After the filter was dried in a dryer (50° C.) for about 3 hours, 40 μl of liquid scintillation cocktail (MicroScint-O) was added to each well and radio activity was measured by a scintillation counter (Packard Topcount). The radio activity in the presence of an excessive amount of non-labeled PrRP (final concentration: 100 nM) was regarded as non-specific binding.
The binding inhibition rate was calculated based on calculating formula: 100−(radio activity when a compound is added−radio activity of non-specific binding)÷(radio activity when a solvent is added−radio activity of non-specific binding)×100.
An IC50 value was calculated based on the concentration dependent reaction using a non-linear analysis program and a Ki value was calculated using Cheng-Prussoff formula.

human GPR10 [2] = molecular target: T1, human GPR10; experiment: Antagonistic activity on PrRP-induced intracellular calcium mobilization in human GPR10-expressing HEK293 cells; format: cell-based; settings: PrRP 1 nM-induced intracellular calcium mobilization, Fluo-8
Description: Pharmacological Test 2 Antagonistic Activity on GPR10 Using Human GPR10-Expressing HEK293 Cells.
Antagonistic activity of test compounds on PrRP-induced intracellular calcium mobilization was evaluated using GPR10-expressing HEK293 cells.
HEK293 cells expressing human GPR10 were maintained in Dulbecco's Modified Eagles' medium supplemented with 10% fetal bovine serum, 1% penicillin-streptomycin and 20 mM HEPES at 37° C. in a 5% CO2 incubator. GPR10-expressing HEK293 cells were placed in poly-D-lysine coated 96-well culture plates and cultured for 18-24 hr before the test at a density of 3×10^4 cells/well. […] The cells were incubated with test compounds for 15 min at room temperature, and then PrRP (the final concentration, 1 nM) was added into the medium. The changes in intracellular calcium-dependent fluorescence were monitored using a fluorescence imaging plate reader (FDSS3000, Hamamatsu Photonics K.K.). Fluo-8 fluorescence was measured with excitation at 490 nm and emission at 520 nm. The calcium-dependent fluorescence intensity was calculated by subtracting basal intensity (average intensity for 30 sec before agonist stimulation) from peak intensity for 60 sec after PrRP-stimulation, and then IC50 values were determined by nonlinear curve-fitting program, GraphPad Prism 5.

| Compound | Ki (human GPR10 [1]) [nM] | IC50 (human GPR10 [2]) [nM] |
| --- | --- | --- |
| COn1c(N[C@@H](C)c2ccc(C(F)(F)F)cc2)nc2c(c1=O)CN(C(=O)c1cc3cc(Cl)ccc3o1)CC2 [Example 2403, 6-(5-chlorobenzofuran-2-carbonyl)-3-methoxy-2-[(S)-1-(4-trifluoromethylphenyl)ethylamino]-5,6,7,8-tetrahydro-3H-pyrido[4,3-d]pyrimidin-4-one] | 12 | 824 |
| CCOc1ccc(C(=O)N2CCc3nc(N[C@@H](C)c4ccc(C(F)(F)F)cc4)n(OC)c(=O)c3C2)cc1 [Example 2451, 6-(4-ethoxybenzoyl)-3-methoxy-2-[(S)-1-(4-trifluoromethylphenyl)ethylamino]-5,6,7,8-tetrahydro-3H-pyrido[4,3-d]pyrimidin-4-one] | 9 | 1280 |
| COn1c(N[C@@H](C)c2ccc(C(F)(F)F)cc2)nc2c(c1=O)CN(C(=O)c1ccc(C#N)cc1)CC2 [Example 2386, 4-{3-methoxy-4-oxo-2-[(S)-1-(4-trifluoromethylphenyl)ethylamino]-3,5,7,8-tetrahydro-4H-pyrido[4,3-d]pyrimidine-6-carbonyl}benzonitrile] | 2 | 140 |
| COc1cc(Cl)ccc1C(=O)N1CCc2nc(N[C@@H](C)c3ccc(C(F)(F)F)cc3)n(OC)c(=O)c2C1 [Example 2414, 6-(4-chloro-2-methoxybenzoyl)-3-methoxy-2-[(S)-1-(4-trifluoromethylphenyl)ethylamino]-5,6,7,8-tetrahydro-3H-pyrido[4,3-d]pyrimidin-4-one] | 18 |  |
| COn1c(N[C@@H](C)c2ccc(C(F)(F)F)cc2)nc2c(c1=O)CN(C(=O)c1ccc3c(c1)CCC(=O)N3C)CC2 [Example 2461, 3-methoxy-6-(1-methyl-2-oxo-1,2,3,4-tetrahydro-quinoline-6-carbonyl)-2-[(S)-1-(4-trifluoromethylphenyl)ethylamino]-5,6,7,8-tetrahydro-3H-pyrido[4,3-d]pyrimidin-4-one] | 16 |  |
| COn1c(N[C@@H](C)c2ccc(C(F)(F)F)cc2)nc2c(c1=O)CN(C(=O)c1cnc3ccccc3c1)CC2 [Example 2418, 3-methoxy-6-(quinoline-3-carbonyl)-2-[(S)-1-(4-trifluoromethylphenyl)ethylamino]-5,6,7,8-tetrahydro-3H-pyrido[4,3-d]pyrimidin-4-one] | 8 | 286 |
| COn1c(N[C@@H](C)c2ccc(C(F)(F)F)cc2)nc2c(c1=O)CN(C(=O)c1ccc(Cl)c(C)c1)CC2 [Example 2396, 6-(4-chloro-3-methylbenzoyl)-3-methoxy-2-[(S)-1-(4-trifluoromethylphenyl)ethylamino]-5,6,7,8-tetrahydro-3H-pyrido[4,3-d]pyrimidin-4-one] | 20 | 2220 |
